Results taken from patent EP0821692B1, “IMMUNOPOTENTIATING INOSINE MONOPHOSPHATE 5'-NUCLEOTIDASE RESISTANT DERIVATIVES AND USES THEREOF” (UNIVERSITY OF SOUTH FLORIDA, priority 1995, dated 1996).

Tested on: 5'-nucleotidase
Conditions: breakdown by 5'-nucleotidase, in words

methyl-5'-inosine-phosphonate
resistance to hydrolysis: extremely resistant to hydrolysis

This is a selection: effects in other tests are not listed, and their absence says nothing.
